Test results as given in US6180599A, “Pharmaceutical composition, containing medium-chain fatty acids as active ingredients, for dental caries and periodontal disease” (priority 1997, dated 2001).

Columns and labels:
[1] = system: A. viscosus ATCC 15987; assay: Inhibitory effect on extracellular polysaccharide synthesis, standard strain; format: cell-based; conditions: Actinomyces viscosus, ATCC15987; 1 mM; an increase vs control, not an inhibition; read-out: Inhibitory rate, soluble (increase)
Procedure: (§1) In order to identify the effect by which medium-chain fatty acids inhibit plaque matrix formation, inhibitory effect and concentration of extracellular polysaccharide synthesis were determined in seven kinds of standard cariogenic plaque bacteria. Also, the inhibitory effect of extracellular polysaccharide synthesis for 20 kinds of cariogenic plaque bacteria, separated from the human oral cavity, was measured. Liquid culture media used were: Todd-Hewitt broth of Streptococcus, Lactobacilli MRS broth of Lactobacillus and Brain Heart Infusion broth of Actinomyces. 0.1 ml of bacterial (or cell) suspension (OD600 =0.5) of each bacteria was inoculated to 5.9 ml of culture media containing 1 mM of medium-chain fatty acids and 2% of glucose, and was cultured for 24^~ 48 hours in 10% CO2 incubator. After culturing, the resultant was centrifuged to precipitate at 5,000×g for 15 minutes, then soluble extracellular polysaccharide was separated and purified from the supernatant and insoluble extracellular polysaccharide from the cell pellet, and then these were quantified.

[2] = system: S. mutans BHT; assay: as above; format: cell-based, Streptococcus mutans; conditions: 1 mM; 2% glucose; 24-48 hours; control 31.5 ± 3.7
Procedure: as §1

In the case of `CCCCCCCCC(=O)[O-].[Na+]` [C9, sodium nonanoate], the inhibition at 1000 µM [1] is reported as 8% and the “Extracellular polysaccharide, soluble” value [2] is reported as 8.0 ± 1.1 µg/mL.
